From PubChem BioAssay AID743266 (National Center for Advancing Translational Sciences (NCATS), 2014)
Only a part is listed here, and it is no random draw. Some salts and complexes are drawn in separate pieces, as the source files them; their charges need not balance. Calls of active or inactive are those of the source. The call rests on the fitted dose curve; in most records, active means well fitted activation curve with a large enough effect; inconclusive means small, poorly fitted or top-dose-only effect, or another doubt; inactive means no such curve, though single readings can be large or run the other way.

The chains behind the UniProt entries cited, without tags or fusion partners.
UniProt Q03431, whole entry: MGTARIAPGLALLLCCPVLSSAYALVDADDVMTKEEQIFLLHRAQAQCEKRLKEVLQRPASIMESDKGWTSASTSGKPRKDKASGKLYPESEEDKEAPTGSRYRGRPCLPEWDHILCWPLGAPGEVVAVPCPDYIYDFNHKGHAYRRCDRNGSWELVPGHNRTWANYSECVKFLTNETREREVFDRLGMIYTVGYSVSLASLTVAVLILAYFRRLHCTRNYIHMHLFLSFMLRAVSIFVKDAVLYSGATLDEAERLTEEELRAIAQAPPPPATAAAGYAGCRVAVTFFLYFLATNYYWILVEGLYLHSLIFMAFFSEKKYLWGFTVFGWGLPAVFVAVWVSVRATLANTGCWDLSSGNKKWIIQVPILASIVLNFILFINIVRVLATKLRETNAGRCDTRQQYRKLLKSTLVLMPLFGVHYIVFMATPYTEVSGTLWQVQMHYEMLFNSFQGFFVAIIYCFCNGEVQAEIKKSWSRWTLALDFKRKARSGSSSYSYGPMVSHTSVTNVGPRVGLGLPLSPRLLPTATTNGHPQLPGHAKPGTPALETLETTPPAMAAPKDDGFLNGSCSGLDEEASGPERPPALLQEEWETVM

Each molecule was assayed against Parathyroid hormone/parathyroid hormone-related peptide receptor (Homo sapiens) (UniProt Q03431) (assay: qHTS for PTHR1 Agonists: Primary Screen). Details: HEK293 GP2 PTHR1 cells, GloSensor cAMP luminescence, 1 h; activation: at 115 µM (top of the series) unless noted.
Further: nearly all actives have a fitted effect of over 55% in size.

| Compound | activation |
| --- | --- |
| CC(C)(C)n1nnnc1C(c1ccccc1OC(F)(F)F)N1CCC(n2c(=O)[nH]c3ccccc32)CC1 (stereo unspecified) | inactive: -12.8% |
| O=C(NCC1(N2CCCCC2)CCCCC1)c1ccc(OC(F)F)cc1 | inactive: -5.02% |
| CCN1CCC(Nc2ccc(Cl)cc2)CC1 | inactive: -22.9% |
| O=c1[nH]c2ccccc2n1C1CCN(C(c2ccccc2OC(F)(F)F)c2nnnn2C2CCCC2)CC1 (stereo unspecified) | inactive: -25.1% |
| N#CC1(Nc2ccccc2)CCN(CCc2ccccc2)CC1 | inactive: -11.2% [at 57.5 µM] |
| CCOc1ccc(C(=O)NCC2(N3CCOCC3)CCCCC2)cc1 | inactive |
| CSc1ccc(C(=O)NCC2(N3CCOCC3)CCCCC2)cc1 | inactive: -14.8% |
| O=[N+]([O-])c1cc([N+](=O)[O-])c(NCC2CCS(=O)(=O)C2)c([N+](=O)[O-])c1 (stereo unspecified) | inactive: -17.1% |
| CCCOc1cccc(C(=O)NCC2(N3CCOCC3)CCCCC2)c1 | inactive |
| O=C(NCC1(N2CCCCC2)CCCCC1)c1cccc(C(F)(F)F)c1 | inactive |
| COc1cc(C(=O)NCC2(N3CCCCC3)CCCCC2)ccc1OC(F)F | inactive |
| O=C(NCC1(N2CCOCC2)CCCCC1)c1cc(=O)[nH]c2ccccc12 | inactive: -4.45% [at 57.5 µM] |
| CN1CCN(CCOC(=O)C(O)(c2ccccc2)c2ccccc2)CC1 | inactive |
| COc1ccc(NC2CCN(C(=O)OC(C)(C)C)CC2)cc1 | inactive: -30.8% |
| CC(C)c1ccc(C(=O)NCC2(N3CCOCC3)CCCCC2)cc1 | inactive: -21.5% |
| CCCCn1nnnc1C(c1cccc2ccccc12)N1CCC(n2c(=O)[nH]c3ccccc32)CC1 (stereo unspecified) | inactive: -12.5% |
| CCCCn1nnnc1C(c1ccccc1OC(F)(F)F)N1CCC(n2c(=O)[nH]c3ccccc32)CC1 (stereo unspecified) | inactive: -5.63% |
| CC(C)c1ccc(NC2CCN(C(=O)OC(C)(C)C)CC2)cc1 | inactive: -27.8% |
| COc1ccc(CN(CCCl)CCCl)cc1Cl | inactive |
| O=[N+]([O-])c1cc([N+](=O)[O-])c(OC2CCCCC2O)c([N+](=O)[O-])c1 (stereo unspecified) | inactive: -48.1% |
| CN(C)c1cccc(C(=O)NCC2(N3CCCCC3)CCCCC2)c1 | inactive: 5.34% |
| COc1cc(OC)c(C(=O)NCC2(N(C)C)CCCCC2)cc1OC | inactive |
| CCC(c1nnnn1C(C)(C)C)N1CCC(n2c(=O)[nH]c3ccccc32)CC1 (stereo unspecified) | inactive: -15.3% |
| O=C(NCC1(N2CCOCC2)CCCCC1)c1cc(F)c(F)cc1Cl | inactive |

| Compound | activation |
| --- | --- |
| CCN(CC)CCCNc1ccccc1[N+](=O)[O-].O=[N+]([O-])c1cc([N+](=O)[O-])c(O)c([N+](=O)[O-])c1 | inactive: -6.09% [at 57.5 µM] |
| CCCCn1nnnc1C(c1ccnc2ccccc12)N1CCC(n2c(=O)[nH]c3ccccc32)CC1 (stereo unspecified) | inactive: -14.2% |
| O=C(OC1CN2CCC1CC2)c1ccc([N+](=O)[O-])cc1 (stereo unspecified) | inactive |
| CN1CCC(Nc2cccc(F)c2)CC1 | inactive |
| O=C(NCC1(N2CCCCC2)CCCCC1)c1cncc(Br)c1 | inactive |
| COc1ccc2c(c1O)-c1c(O)c(OC)cc3c1[C@H](C2)[N+](C)(C)CC3.O=[N+]([O-])c1cc([N+](=O)[O-])c([O-])c([N+](=O)[O-])c1[O-] | inactive: -24.4% |
| O=[N+]([O-])c1cc([N+](=O)[O-])c(Nc2ccc(Cl)cc2)c([N+](=O)[O-])c1 | inactive |
| COc1ccc(C(c2nnnn2C2CCCC2)N2CCC(n3c(=O)[nH]c4ccccc43)CC2)cc1 (stereo unspecified) | inactive: -6.67% |
| CCCCOc1ccccc1C(=O)NCC1(N2CCOCC2)CCCCC1 | inactive: -37.5% |
| Cc1ccc(C(=O)NCC2(N(C)C)CCCCC2)o1 | inactive: -52.5% |
| O=C(NCC1(N2CCOCC2)CCCCC1)c1ccccc1Br | inactive |
| CCCOc1ccc(C(=O)NCC2(N(C)C)CCCCC2)cc1OC | inactive |
| COc1ccc(C(=O)NCC2(N3CCCCC3)CCCCC2)cc1 | inactive: 20.4% |
| CC(C)(C)OC(=O)N1CCC(N(C(=O)c2ccccc2)c2ccc(F)cc2)CC1 | inactive: -14.5% |
| CCC(c1nnnn1C1CCCC1)N1CCC(n2c(=O)[nH]c3ccccc32)CC1 (stereo unspecified) | inactive |
| O=C(NCC1(N2CCCCC2)CCCCC1)c1ccc(=O)[nH]c1 | inactive |
| CCCCn1nnnc1C(CC)N1CCC(n2c(=O)[nH]c3ccccc32)CC1 (stereo unspecified) | inactive: -18.1% |
| O=C(NCC1(N2CCCCC2)CCCCC1)c1cccs1 | inactive |
| CCCCn1nnnc1C(c1cccs1)N1CCC(n2c(=O)[nH]c3ccccc32)CC1 (stereo unspecified) | inactive: -1.4% |
| CSc1ccccc1C(=O)NCC1(N2CCCCC2)CCCCC1 | inactive |
| Cc1cccc(NC2(C#N)CCN(Cc3ccccc3)CC2)c1 | inactive: -14.4% |
| O=C(NCC1(N2CCCCC2)CCCCC1)c1ccc(Cl)nc1 | inactive: -6.77% |
| O=c1[nH]c2ccccc2n1C1CCN(C(c2ccccc2OC(F)(F)F)c2nnnn2C2CCCCC2)CC1 (stereo unspecified) | inactive |
| Cc1cc(C)cc(N(C(=O)c2ccccc2)C2CCN(C(=O)OC(C)(C)C)CC2)c1 | inactive: -6.53% |

| Compound | activation |
| --- | --- |
| O=C(NCC1(N2CCOCC2)CCCCC1)c1cc2ccccc2o1 | inactive: -3.79% [at 57.5 µM] |
| O=C(NCC1(N2CCCCC2)CCCCC1)c1ccc(Cl)s1 | inactive |
| N#CC1(Nc2ccccc2)CCN(Cc2ccccc2)CC1 | inactive: 19.8% |
| O=C(OC1CN2CCC1CC2)C1c2ccccc2Oc2ccccc21 (stereo unspecified) | inactive |
| O=c1[nH]c2ccccc2n1C1CCN(C(c2cc3ccccc3o2)c2nnnn2C2CCCCC2)CC1 (stereo unspecified) | inactive |
| COc1ccc(Cl)cc1C(=O)NCC1(N2CCOCC2)CCCCC1 | inactive: -22.5% |
| O=C1C(O)=C([N+](=O)[O-])C(=O)C(O)=C1[N+](=O)[O-] | inactive |
| CCOC(=O)N1CCC(Nc2ccc(OC)cc2)CC1 | inactive: -7.23% |
| CCCCn1nnnc1C(c1ccc(OC)cc1)N1CCC(n2c(=O)[nH]c3ccccc32)CC1 (stereo unspecified) | inactive: -9.11% |
| O=C(NCC1(N2CCOCC2)CCCCC1)c1ccc(Cl)cc1 | inactive: -18.4% |
| CC(C)(C)n1nnnc1C(c1ccccc1)N1CCC(n2c(=O)[nH]c3ccccc32)CC1 (stereo unspecified) | inactive: -4.93% |
| O=C1CCN(Cc2ccccc2)CC1 | inactive: -21.9% |
| CCOc1ccc(C)cc1CN(CCCl)CCCl | inactive |
| COc1ccccc1C(=O)NCC1(N2CCOCC2)CCCCC1 | inactive: -26.7% |
| CCCCn1nnnc1C(c1cc2ccccc2o1)N1CCC(n2c(=O)[nH]c3ccccc32)CC1 (stereo unspecified) | inactive: -10.1% |
| O=P1(N(CCCl)CCCl)SCCCS1 | inactive |
| CCCCOc1ccc(C(=O)NCC2(N3CCOCC3)CCCCC2)cc1 | inactive |
| O=C(NCC1(N2CCCCC2)CCCCC1)c1ccc(F)cc1 | inactive |
| COc1ccc(NC2CCN(CCc3ccccc3)CC2)c(OC)c1 | inactive: -17.1% |
| CCOC(=O)N1CCC(Nc2ccc(F)cc2)CC1 | inactive: -53% |
| O=c1[nH]c2ccccc2n1C1CCN(C(c2ccccc2)c2nnnn2C2CCCCC2)CC1 (stereo unspecified) | inactive |
| CCOC(=O)N1CCC(Nc2cccc(C)c2)CC1 | inactive: -26% |
| COc1cc(C(=O)NCC2(N(C)C)CCCCC2)ccc1OC(F)F | inactive: 2.63% |
| O=c1[nH]c2ccccc2n1C1CCN(C(c2cccc3ccccc23)c2nnnn2C2CCCC2)CC1 (stereo unspecified) | inactive: -14.5% |

| Compound | activation |
| --- | --- |
| CN(C)C1(CNC(=O)c2ccc(C(C)(C)C)cc2)CCCCC1 | inactive: -26.8% |
| COc1cccc(C(c2nnnn2C2CCCCC2)N2CCC(n3c(=O)[nH]c4ccccc43)CC2)c1OC (stereo unspecified) | inactive: -15% |
| CC(=O)N(c1ccccc1)C1CCNCC1 | inactive: -11.9% |
| CCC(c1nnnn1C1CCCCC1)N1CCC(n2c(=O)[nH]c3ccccc32)CC1 (stereo unspecified) | inactive: -16% |
| COc1cc(OC)cc(C(=O)NCC2(N3CCCCC3)CCCCC2)c1 | inactive: -20.7% |
| O=c1[nH]c2ccccc2n1C1CCN(C(c2ccnc3ccccc23)c2nnnn2C2CCCCC2)CC1 (stereo unspecified) | inactive: -6.95% |
| Cc1ccc(C(=O)NCC2(N3CCCCC3)CCCCC2)o1 | inactive |
| Fc1ccccc1NC1CCN(Cc2ccccc2)CC1 | inactive: -17.9% [at 57.5 µM] |
| Cc1ccc(Nc2c([N+](=O)[O-])cc([N+](=O)[O-])cc2[N+](=O)[O-])cc1 | inactive: -47.2% |
| Cc1ccc(NC2(C#N)CCN(Cc3ccccc3)CC2)cc1 | inactive: -0.495% |
| Cc1ccccc1NC1(C#N)CCN(Cc2ccccc2)CC1 | inactive |
| COc1ccc(C(c2nnnn2C2CCCCC2)N2CCC(n3c(=O)[nH]c4ccccc43)CC2)cc1 (stereo unspecified) | inactive: -20.8% |
| CCN1CCC(Nc2cccc(F)c2)CC1 | inactive |
| CC(C)(C)n1nnnc1C(c1ccnc2ccccc12)N1CCC(n2c(=O)[nH]c3ccccc32)CC1 (stereo unspecified) | inactive: -6.22% |
| Cc1ccccc1C(=O)NCC1(N(C)C)CCCCC1 | inactive |
| O=C(NCC1(N2CCCCC2)CCCCC1)c1ccco1 | inactive |
| CC(C)(C)c1ccc(C(=O)NCC2(N3CCOCC3)CCCCC2)cc1 | inactive: -39.7% |
| CN(C)c1ccc(C(=O)NCC2(N3CCCCC3)CCCCC2)cc1 | inactive |
| Cn1c(=O)[nH]cc(N(CCCl)CCCl)c1=O | inactive |
| CCOc1ncccc1C(=O)NCC1(N2CCOCC2)CCCCC1 | inactive: -19% |
| CN1CCC(Nc2ccc(F)c(Cl)c2)CC1 | inactive: 10.5% |
| CC(C)(C)OC(=O)N1CCC(Nc2ccccc2)CC1 | inactive: -18% |
| O=C(O)C1(Nc2ccccc2)CCN(Cc2ccccc2)CC1 | inactive |
| NN(c1ccccc1)C1CCN(CCc2ccccc2)CC1 | inactive: -2.16% |
